The assay has as its target T1, Ornithine decarboxylase (ODC) (Rattus norvegicus, UniProt P09057).
T1 construct: is prepared from the livers of rats which have been injected with thioacetamide; from tissue; host or cells: rat liver (thioacetamide-induced)
T1 sequence (P09057 1-461): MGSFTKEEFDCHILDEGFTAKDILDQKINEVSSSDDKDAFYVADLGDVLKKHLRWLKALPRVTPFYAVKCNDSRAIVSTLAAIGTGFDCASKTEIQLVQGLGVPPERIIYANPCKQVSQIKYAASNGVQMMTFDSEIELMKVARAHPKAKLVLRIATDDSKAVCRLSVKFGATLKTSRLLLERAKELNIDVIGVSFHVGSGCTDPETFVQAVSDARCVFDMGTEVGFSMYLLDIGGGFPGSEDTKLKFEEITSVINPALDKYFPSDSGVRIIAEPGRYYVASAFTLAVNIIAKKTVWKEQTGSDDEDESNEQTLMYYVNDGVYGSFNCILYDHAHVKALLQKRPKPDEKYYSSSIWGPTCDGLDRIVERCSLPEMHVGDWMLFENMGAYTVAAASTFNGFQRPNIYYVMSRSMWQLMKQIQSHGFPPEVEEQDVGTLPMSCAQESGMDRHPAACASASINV
Kind of assay: In vitro time-dependent inhibition of ornithine decarboxylase (14CO2 release from DL-[1-14C]ornithine; Kitz and Wilson analysis). The format is biochemical, rats. On the procedure:
The stock solution of ODC is composed of proteins (16 mg/mL), sodium phosphate buffer (30 mM, pH 7.1), dithiothreitol (5 mM) and pyridoxal phosphate (0.1 mM). The specific activity of this stock solution is 0.12 nmol of CO2/min per mg of protein. For a typical experiment 320 µl of this stock solution is mixed at time 0 with 80 µl of a solution of the inhibitor in water and incubated at 37°. At different times 50 pl aliquots are transferred into a 1 mL assay medium containing sodium phosphate (30 mM, pH 7.1), dithiothreitol (5 mM), pyridoxal phosphate (0.1 mM), L-ornithine (0.081 pmol), and DL-[1-^14C] ornithine (0.043 pmol, 58 Ci/mol, Amersham) in a closed vessel in which a filter paper moistered with 50 µl hyamine hydroxide (1 M) is fitted. The reaction is allowed to proceed for 60 min at 37°C and then terminated by addition of 0.5 ml of 40% trichloroacetic acid. After an additional 30 min, the CO2 absorbed on the filter paper is counted in a standard scintillation cocktail.

Where two headings read alike, the source gives them in different places.

As for `C=C(CN)CC(N)CF` (stereo not drawn) [B, 1-fluoro-2,5-diamino-4-methylene-pentane], the Ki stood at 13 µM.

For `C=C(CN)CC(N)C(F)F` (stereo not drawn) [E, 1,1-difluoro-2,5-diamino-4-methylene-pentane], the Ki stood at 60 µM. `NCC(=O)CC(N)CF` (stereo not drawn) [C, 1-fluoro-2,5-diamino-4-oxo-pentane]: the Ki (apparent dissociation constant, ODC from livers of thioacetamide-treated rats, incubated at 37°, calculated by method of Kitz and Wilson, read-out: ODC KI) is 7.5 µM.

These data come from patent publication EP0072761B1, “Decarboxylase-inhibiting fluorinated alkane diamine derivatives” (MERRELL TORAUDE ET COMPAGNIE, priority 1981, dated 1983).
